Values of other authors, collected in article PMC7395068, “The evolution of strategies to minimise the risk of human drug-induced liver injury (DILI) in drug discovery and development” (Archives of Toxicology, 2020).

Legend:
[1] = cited from earlier work
[2] = cited from earlier work; remark: listed apart in the source
[3] = test system: isolated mouse liver mitochondria; details: cited from earlier work
[4] = FDA drug labelling score, scale 1-8; ref Chen 2011; cited from earlier work

Row | Substance | DILI +VE (5-8), DILI -VE (-4) ([1]; in vivo) | DILI severity category ([1]; in vivo) | In vivo DILI ([2]; in vivo) | other results
1 | enfuvirtide | -VE | Ambiguous DILI-concern |  | 
2 | plicamycin |  |  |  | In vivo DILI ([2]; […]): +VE
3 | glycine |  |  | -VE | 
4 | medroxyprogesterone | -VE | Ambiguous DILI-concern |  | 
5 | Hyperforin |  |  | -VE | in vitro data EC20<=2uM [3]: +VE
6 | maraviroc |  |  |  | DILI +VE (5-8), DILI -VE (-4) ([1]; binary in vivo human DILI call, ref Chen 2016): +VE; DILI Score (FDA) (1-8) [4]: 3

Read-outs that look alike come from different tables or passages of the source.
